Test results: patent US10287267B2, “Isoquinolin-3-yl carboxamides and preparation and use thereof” (Samumed, LLC, priority 2016, dated 2019)

Chains of the proteins cited; added tags and fusions are not shown. Lines headed by an entry give the natural chain unless they say otherwise; changes in a name come on top.
UniProt P49841: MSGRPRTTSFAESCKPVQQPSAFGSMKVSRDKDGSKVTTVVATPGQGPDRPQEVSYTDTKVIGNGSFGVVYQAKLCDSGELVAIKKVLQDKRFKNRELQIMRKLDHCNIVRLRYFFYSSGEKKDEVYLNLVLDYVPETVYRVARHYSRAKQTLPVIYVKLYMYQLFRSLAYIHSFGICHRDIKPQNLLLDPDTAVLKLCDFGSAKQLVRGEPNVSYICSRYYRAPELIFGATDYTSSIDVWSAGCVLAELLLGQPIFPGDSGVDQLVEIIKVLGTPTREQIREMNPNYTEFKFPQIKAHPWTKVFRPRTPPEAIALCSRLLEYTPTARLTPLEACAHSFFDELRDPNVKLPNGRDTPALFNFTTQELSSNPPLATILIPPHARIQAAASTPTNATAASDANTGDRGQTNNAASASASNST

Biological target: recombinant GSK3β kinase (Homo sapiens (Human), UniProt P49841)
Experiment: GSK3β kinase assay (Ser/Thr 09 peptide Z-lyte FRET);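 also: kinase activity read as coumarin to fluorescein emission ratio, 11-point threefold dilutions from 10 µM to 0.0003 µM in duplicate, unphosphorylated and phosphorylated peptide as 0% and 100% controls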
Type: biochemical
Conditions: 46 μM ATP, 1 h room temperature

SMILES	EC50 [nM]
[2H]c1nc(NC(=O)C2CCN(CC(C)C)CC2)cc2cc(-c3cnn(C)c3)ccc12 [Compound 1087, 1-Isobutyl-N-(6-(1-methyl-1H-pyrazol-4-yl)isoquinolin-3-yl-1-d)piperidine-4-carboxamide]	37
[2H]C([2H])([2H])n1cc(-c2ccc3cnc(NC(=O)C4CCN(CC(C)C)CC4)cc3c2)cn1 [Compound 972, 1-Isobutyl-N-(6-(1-(methyl-d3)-1H-pyrazol-4-yl)isoquinolin-3-yl)piperidine-4-carboxamide]	64
Cn1cc(-c2ccc3cnc(NC(=O)C4CCN(S(C)(=O)=O)CC4)cc3c2)cn1 [Compound 330, N-(6-(1-Methyl-1H-pyrazol-4-yl)isoquinolin-3-yl)-1-(methylsulfonyl) piperidine-4-carboxamide]	15
[2H]C([2H])([2H])C([2H])(C([2H])([2H])[2H])C([2H])([2H])N1CCC(C(=O)Nc2cc3cc(-c4cnn(C)c4)ccc3cn2)CC1 [Compound 1086, N-(6-(1-Methyl-1H-pyrazol-4-yl)isoquinolin-3-yl)-1-(2-(methyl-d3)propyl-1,1,2,3,3,3-d6)piperidine-4-carboxamide]	28
CC(C)CN1CCC(C(=O)Nc2cc3cc(-c4cnn(C)c4)ccc3cn2)CC1 [Compound 77, 1-Isobutyl-N-(6-(1-methyl-1H-pyrazol-4-yl)isoquinolin-3-yl)piperidine-4-carboxamide]	24
